## Antibody variant affinities, Ab-14 heavy chain, assay B

Binding partner: SARS-CoV-2 spike HR2 peptide, sequence PDVDLGDISGINAS.

Parent scFv Ab-14: VH joined to VL by a 15-residue (Gly4Ser)3 linker. Changes lie in the heavy chain CDRs alone.
VH: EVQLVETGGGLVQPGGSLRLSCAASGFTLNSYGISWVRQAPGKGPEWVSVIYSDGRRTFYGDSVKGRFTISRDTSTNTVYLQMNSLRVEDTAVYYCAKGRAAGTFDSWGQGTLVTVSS
VL: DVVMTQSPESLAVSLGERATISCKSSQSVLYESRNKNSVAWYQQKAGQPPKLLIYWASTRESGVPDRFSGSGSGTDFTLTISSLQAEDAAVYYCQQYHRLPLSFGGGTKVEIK

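The parent was found by panning a naive human phage display library on the peptide. This is the validation round: designs drawn from the data on random variants, tested in the same kind of assay. Their group label is 14H_GPLM_Gen (GPLM: also part of the Gaussian process libraries; Gen: genetic algorithm; a sequence that several methods proposed may carry one label only). The scFvs were displayed on barcoded MATa yeast, the peptide on MATalpha yeast. After mating in shaken culture at 30 °C for 16 h, diploids were selected and their barcode pairs sequenced. Each replicate has its own calibration line, from reference interactions of the BCL2 family. The assay was run in six technical replicates.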

Each variant is given by its three heavy chain CDRs, as the data file delimits them; those of the parent are GFTLNSYGIS, VIYSDGRRTFYGDSVK, GRAAGTFDS.
Affinities are written as log10 Kd with Kd in nM; a lower number is a better binder.
The mean shown is taken over the replicates in which the pair was detected.
Where no diploid with the target was found in that replicate, the entry reads "nd": below detection, most likely a poor binder, though not proof of it.
A sequence measured in both rounds can read differently, since the two assays cover different ranges.

{"CDR-H1": "GFSLKSYGIS", "CDR-H2": "VIYSDGRRTFYGDSVK", "CDR-H3": "GQAAGTFDS", "log10 Kd (nM) by replicate": "nd / nd / nd / nd / 1.05 / nd", "mean, log10 nM": "1.05", "control signals": "0/18"}
{"CDR-H1": "GFSLNNYGIS", "CDR-H2": "VIYADGRRTFYGDSVK", "CDR-H3": "GQAAGTFDS", "log10 Kd (nM) by replicate": "-0.30 / -0.38 / -0.51 / -0.65 / -0.49 / -0.42", "mean, log10 nM": "-0.46", "control signals": "0/18"}
{"CDR-H1": "GFNLNSYGIS", "CDR-H2": "VIYSDGRRTFYHDSVK", "CDR-H3": "GQAAGTFDS", "log10 Kd (nM) by replicate": "1.06 / 1.04 / 0.36 / 1.10 / 0.70 / 0.79", "mean, log10 nM": "0.84", "control signals": "0/18"}
{"CDR-H1": "GFTLNSYGIS", "CDR-H2": "VIYADGRRTFYGDSVK", "CDR-H3": "GRVAGTFDT", "log10 Kd (nM) by replicate": "0.44 / 0.22 / 0.08 / -0.25 / 0.78 / 0.11", "mean, log10 nM": "0.23", "control signals": "0/18"}
{"CDR-H1": "GFTLNDYGIS", "CDR-H2": "VIYSDGRRTFYADSVK", "CDR-H3": "GRVAGTFDS", "log10 Kd (nM) by replicate": "-0.29 / -0.88 / -0.48 / -0.57 / -0.51 / 0.19", "mean, log10 nM": "-0.42", "control signals": "0/18"}
{"CDR-H1": "GFDLNSYGIS", "CDR-H2": "VIYSDGRRTFYGDSVK", "CDR-H3": "GKAAGTFDR", "log10 Kd (nM) by replicate": "0.83 / 0.87 / 1.22 / 2.01 / 1.68 / nd", "mean, log10 nM": "1.32", "control signals": "0/18"}
{"CDR-H1": "GFSLNSYGIS", "CDR-H2": "VIYSDGRRTFYADSVK", "CDR-H3": "GWVAGTFDS", "log10 Kd (nM) by replicate": "0.46 / -0.39 / -0.26 / -0.81 / -0.77 / 0.18", "mean, log10 nM": "-0.26", "control signals": "1/18 (0.91)"}
{"CDR-H1": "GFSLNSYGIS", "CDR-H2": "VIYSDGRRTFYGDSVK", "CDR-H3": "GKHAGTFDS", "log10 Kd (nM) by replicate": "1.33 / 1.05 / 0.88 / 0.79 / 0.96 / 0.91", "mean, log10 nM": "0.99", "control signals": "1/18 (2.08)"}
{"CDR-H1": "GFSLNDYGIS", "CDR-H2": "VIYSDGRRTFYGDSVK", "CDR-H3": "GRTAGTFDL", "log10 Kd (nM) by replicate": "-0.10 / -0.14 / -0.27 / -0.42 / -0.39 / 0.43", "mean, log10 nM": "-0.15", "control signals": "0/18"}
{"CDR-H1": "GFTLNEYGIS", "CDR-H2": "VIYSDGRRTFYGDSVK", "CDR-H3": "GRTAGTFDI", "log10 Kd (nM) by replicate": "1.48 / 1.01 / nd / 0.75 / 1.50 / 0.85", "mean, log10 nM": "1.12", "control signals": "0/18"}
{"CDR-H1": "GFDLNEYGIS", "CDR-H2": "VIYSDGRRTFYADSVK", "CDR-H3": "GKAAGTFDS", "log10 Kd (nM) by replicate": "0.12 / 0.76 / 0.26 / 0.63 / 0.19 / 0.40", "mean, log10 nM": "0.39", "control signals": "0/18"}
{"CDR-H1": "GFGLNSYGIS", "CDR-H2": "VIYSDGRRTFYTDSVK", "CDR-H3": "GKAAGTFDS", "log10 Kd (nM) by replicate": "1.39 / 3.03 / 1.78 / 1.36 / 1.53 / 2.24", "mean, log10 nM": "1.89", "control signals": "0/18"}
{"CDR-H1": "SFDLNSYGIS", "CDR-H2": "VIYSDGRRTFYGDSVK", "CDR-H3": "GREAGTFDS", "log10 Kd (nM) by replicate": "nd / 0.12 / -0.58 / nd / -0.02 / 0.75", "mean, log10 nM": "0.07", "control signals": "0/18"}
{"CDR-H1": "GFNLNSYGIS", "CDR-H2": "VIYSDGRRTFYADSVK", "CDR-H3": "GRTAGTFDS", "log10 Kd (nM) by replicate": "0.02 / 0.22 / -0.14 / -0.28 / -0.18 / 0.37", "mean, log10 nM": "0.00", "control signals": "0/18"}
{"CDR-H1": "GFELNSYGIS", "CDR-H2": "VIYSDGRRTFYGDSVK", "CDR-H3": "GNAAGTFDS", "log10 Kd (nM) by replicate": "0.39 / 0.67 / 1.34 / 1.62 / 1.22 / 0.48", "mean, log10 nM": "0.95", "control signals": "0/18"}
{"CDR-H1": "KFSLNTYGIS", "CDR-H2": "VIYSDGRRTFYGDSVK", "CDR-H3": "GRTAGTFDS", "log10 Kd (nM) by replicate": "-1.41 / -1.47 / -1.00 / -1.54 / -1.16 / -0.91", "mean, log10 nM": "-1.25", "control signals": "0/18"}
{"CDR-H1": "GFTLNSYGIS", "CDR-H2": "VIYSDGRRTFYSDSVK", "CDR-H3": "GQTAGTFDS", "log10 Kd (nM) by replicate": "nd / nd / nd / nd / 0.99 / nd", "mean, log10 nM": "0.99", "control signals": "0/18"}
{"CDR-H1": "GFSLNSYGIS", "CDR-H2": "VIYSDGRRTFYIDSVK", "CDR-H3": "GKEAGTFDS", "log10 Kd (nM) by replicate": "nd / nd / nd / nd / nd / nd", "mean, log10 nM": "nd", "control signals": "0/18"}
{"CDR-H1": "GFTLNSYGIS", "CDR-H2": "VIYADGRRTFYGDSVK", "CDR-H3": "GQAAGTFWS", "log10 Kd (nM) by replicate": "nd / nd / nd / nd / nd / nd", "mean, log10 nM": "nd", "control signals": "0/18"}
{"CDR-H1": "GFTLNDYGIS", "CDR-H2": "VIYSDGRRTFYGDSVK", "CDR-H3": "GRTAGTFDI", "log10 Kd (nM) by replicate": "0.42 / -0.11 / 0.23 / 0.18 / 0.03 / 0.32", "mean, log10 nM": "0.18", "control signals": "1/18 (3.35)"}
{"CDR-H1": "GFSLNEYGIS", "CDR-H2": "VIYSDGRRTYYGDSVK", "CDR-H3": "GRAAGTFDS", "log10 Kd (nM) by replicate": "-0.14 / 0.16 / -0.61 / 0.13 / -0.40 / 0.13", "mean, log10 nM": "-0.12", "control signals": "0/18"}
{"CDR-H1": "GFSLNSYGIS", "CDR-H2": "VIYSDGRRTFYTDSVK", "CDR-H3": "GWAAGTFDS", "log10 Kd (nM) by replicate": "1.20 / 1.80 / 0.87 / 1.22 / 1.70 / 0.73", "mean, log10 nM": "1.25", "control signals": "0/18"}
{"CDR-H1": "GFSLNSYGIS", "CDR-H2": "VIYSDGRRTFYADSVK", "CDR-H3": "GRTAGTFDN", "log10 Kd (nM) by replicate": "0.94 / 0.98 / 0.79 / 0.86 / 0.71 / 0.66", "mean, log10 nM": "0.82", "control signals": "0/18"}
{"CDR-H1": "GFSLNEYGIS", "CDR-H2": "VIYSDGRRTFYGDSVK", "CDR-H3": "GRAAGTFDY", "log10 Kd (nM) by replicate": "1.44 / 0.68 / 0.50 / 0.27 / 0.14 / 0.87", "mean, log10 nM": "0.65", "control signals": "1/18 (2.77)"}
{"CDR-H1": "GFSLNDYGIS", "CDR-H2": "VIYSDGRRTFYHDSVK", "CDR-H3": "GRVAGTFDS", "log10 Kd (nM) by replicate": "-0.93 / -0.79 / -0.41 / -0.68 / -0.76 / -0.55", "mean, log10 nM": "-0.69", "control signals": "0/18"}
{"CDR-H1": "GFTLNSYGIS", "CDR-H2": "VIYSDGRRTFYSDSVK", "CDR-H3": "GQAAGTFDL", "log10 Kd (nM) by replicate": "0.44 / 0.28 / -0.07 / 0.09 / 0.33 / 0.19", "mean, log10 nM": "0.21", "control signals": "0/18"}
{"CDR-H1": "GFSLNEYGIS", "CDR-H2": "VIYSDGRRTFYGDSVK", "CDR-H3": "GQAAGTFDQ", "log10 Kd (nM) by replicate": "nd / nd / nd / nd / nd / nd", "mean, log10 nM": "nd", "control signals": "0/18"}
{"CDR-H1": "KFSLNSYGIS", "CDR-H2": "VIYADGRRTFYGDSVK", "CDR-H3": "GQAAGTFDS", "log10 Kd (nM) by replicate": "0.36 / 0.50 / -0.12 / -0.09 / 0.11 / 0.32", "mean, log10 nM": "0.18", "control signals": "1/18 (1.31)"}
{"CDR-H1": "GFTLESYGIS", "CDR-H2": "VIYSDGRRTFYADRVK", "CDR-H3": "GRAAGTFDS", "log10 Kd (nM) by replicate": "nd / nd / 1.38 / nd / 1.44 / nd", "mean, log10 nM": "1.41", "control signals": "0/18"}
{"CDR-H1": "KFSLNSYGIS", "CDR-H2": "VIYSDGRRTFYGDSVK", "CDR-H3": "GQTAGTFDS", "log10 Kd (nM) by replicate": "2.10 / nd / nd / 1.80 / 1.28 / 2.70", "mean, log10 nM": "1.97", "control signals": "0/18"}
{"CDR-H1": "GFSLNEYGIS", "CDR-H2": "VIYSDGRRTFYGDSVK", "CDR-H3": "GHAAGTFDS", "log10 Kd (nM) by replicate": "0.29 / 0.17 / 0.48 / 0.11 / 0.32 / 0.50", "mean, log10 nM": "0.31", "control signals": "0/18"}
{"CDR-H1": "GFTLDSYGIS", "CDR-H2": "VIYSDGRRTFYADSVK", "CDR-H3": "GRAAGTFDV", "log10 Kd (nM) by replicate": "0.63 / 0.79 / 0.13 / 0.32 / 0.32 / 0.47", "mean, log10 nM": "0.44", "control signals": "0/18"}

The parent sequence was in this pool as ten entries: three were never detected, three once, and four in most replicates, with averages from 0.34 to 2.37.
Three control strains display no target. For all heavy chain designs, 1% of the pairings with them gave a signal, with a median of 2.08 and one signal in twenty below 0.84, so weak values seen in few replicates may be background. The control count says in how many pairings with the empty strains this scFv gave a signal, with their mean in brackets.
In the paper, a design with two or fewer of six values counts as a poor binder.

The measurements come from Li et al. 2023 (doi:10.1038/s41467-023-39022-2) through the FLAb antibody collection.